Assay results published in ChEMBL document CHEMBL2440009, “Discovery of GSK2656157: An Optimized PERK Inhibitor Selected for Preclinical Development” (ACS Med Chem Lett, 2013).

Target: T1, Eukaryotic translation initiation factor 2-alpha kinase 3 (Homo sapiens, UniProt Q9NZJ5)
T1 sequence (Q9NZJ5 whole entry): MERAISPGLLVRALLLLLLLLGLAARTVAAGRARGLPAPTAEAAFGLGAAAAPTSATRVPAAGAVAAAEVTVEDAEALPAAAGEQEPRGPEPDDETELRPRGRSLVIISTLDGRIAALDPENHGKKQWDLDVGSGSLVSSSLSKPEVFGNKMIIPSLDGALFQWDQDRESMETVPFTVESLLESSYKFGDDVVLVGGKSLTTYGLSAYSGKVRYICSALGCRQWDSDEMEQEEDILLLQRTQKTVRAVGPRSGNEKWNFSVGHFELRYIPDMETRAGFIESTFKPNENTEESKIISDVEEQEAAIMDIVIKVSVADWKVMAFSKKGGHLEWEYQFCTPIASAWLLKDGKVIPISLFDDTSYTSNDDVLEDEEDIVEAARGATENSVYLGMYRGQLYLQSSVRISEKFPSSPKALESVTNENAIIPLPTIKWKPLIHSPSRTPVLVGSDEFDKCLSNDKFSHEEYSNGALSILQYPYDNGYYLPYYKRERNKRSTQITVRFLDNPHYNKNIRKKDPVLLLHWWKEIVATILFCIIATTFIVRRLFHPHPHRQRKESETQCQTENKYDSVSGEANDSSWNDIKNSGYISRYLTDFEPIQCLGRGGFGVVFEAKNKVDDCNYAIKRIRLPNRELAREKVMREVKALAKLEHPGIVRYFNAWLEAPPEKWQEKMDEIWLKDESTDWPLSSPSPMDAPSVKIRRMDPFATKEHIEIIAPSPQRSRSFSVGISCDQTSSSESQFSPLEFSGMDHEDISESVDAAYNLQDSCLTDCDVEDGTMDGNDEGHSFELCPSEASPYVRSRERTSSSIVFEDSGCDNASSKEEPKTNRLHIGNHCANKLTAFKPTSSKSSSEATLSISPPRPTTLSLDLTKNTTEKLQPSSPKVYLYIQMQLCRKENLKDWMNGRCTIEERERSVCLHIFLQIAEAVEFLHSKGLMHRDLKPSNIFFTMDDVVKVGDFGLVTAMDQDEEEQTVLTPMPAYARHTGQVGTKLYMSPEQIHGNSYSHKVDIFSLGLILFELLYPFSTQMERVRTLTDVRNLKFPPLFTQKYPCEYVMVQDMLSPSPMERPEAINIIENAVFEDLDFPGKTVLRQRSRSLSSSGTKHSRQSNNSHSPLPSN
Assay: Inhibition of thapsigargin-induced autophosphorylation of PERK in human A549 cells preincubated for 1 hr followed by thapsigargin-induction measured after 1 hr by Western blotting analysis
Format: cell-based

Cn1cc(-c2ccc3c(c2)CCN3C(=O)Cc2cccc(C(F)(F)F)c2)c2c(N)ncnc21
IC50: < 30 nM
